Reference: ChEMBL document CHEMBL5321226, “Structure-directed identification of pyridine-2-methylamine derivatives as MmpL3 inhibitors for use as antitubercular agents” (Eur J Med Chem, 2023)

Chains of the proteins cited; added tags and fusions are not shown. Lines headed by an entry give the natural chain unless they say otherwise; changes in a name come on top.
UniProt Q12809: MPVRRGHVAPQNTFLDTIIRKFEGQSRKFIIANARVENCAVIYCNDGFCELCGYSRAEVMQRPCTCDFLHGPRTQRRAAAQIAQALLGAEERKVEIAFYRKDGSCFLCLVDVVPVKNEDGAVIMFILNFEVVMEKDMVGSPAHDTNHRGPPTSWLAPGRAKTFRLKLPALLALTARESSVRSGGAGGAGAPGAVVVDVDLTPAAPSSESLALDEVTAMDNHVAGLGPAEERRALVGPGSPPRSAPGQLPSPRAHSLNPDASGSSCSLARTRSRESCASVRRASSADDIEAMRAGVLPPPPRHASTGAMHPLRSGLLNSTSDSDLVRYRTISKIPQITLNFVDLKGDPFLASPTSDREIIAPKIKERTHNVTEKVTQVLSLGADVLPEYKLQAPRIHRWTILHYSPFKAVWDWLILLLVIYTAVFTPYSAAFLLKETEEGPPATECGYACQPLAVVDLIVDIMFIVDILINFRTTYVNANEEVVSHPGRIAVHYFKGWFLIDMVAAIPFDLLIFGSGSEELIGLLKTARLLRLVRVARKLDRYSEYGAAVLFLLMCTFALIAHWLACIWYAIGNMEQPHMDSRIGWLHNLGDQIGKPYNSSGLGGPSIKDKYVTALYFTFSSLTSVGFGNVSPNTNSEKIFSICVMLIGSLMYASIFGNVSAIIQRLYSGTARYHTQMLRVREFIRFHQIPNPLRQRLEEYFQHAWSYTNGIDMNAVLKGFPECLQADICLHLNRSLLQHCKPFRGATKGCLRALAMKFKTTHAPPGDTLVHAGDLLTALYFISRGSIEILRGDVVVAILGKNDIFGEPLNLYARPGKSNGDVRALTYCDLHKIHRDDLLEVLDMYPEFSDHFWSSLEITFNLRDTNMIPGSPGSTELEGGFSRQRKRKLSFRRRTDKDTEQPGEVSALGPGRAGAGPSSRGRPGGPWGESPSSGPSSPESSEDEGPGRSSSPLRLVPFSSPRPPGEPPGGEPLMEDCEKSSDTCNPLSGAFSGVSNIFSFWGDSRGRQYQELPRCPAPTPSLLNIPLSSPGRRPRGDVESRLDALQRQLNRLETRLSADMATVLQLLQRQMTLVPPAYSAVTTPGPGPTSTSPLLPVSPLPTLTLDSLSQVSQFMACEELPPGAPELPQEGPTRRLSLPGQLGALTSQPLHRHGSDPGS

Target: Voltage-gated inwardly rectifying potassium channel KCNH2 (Homo sapiens, UniProt Q12809)
Experiment: Inhibition of human ERG at 300 nM by patch-clamp electrophysiology assay
Type: toxicity
Conditions: 0.3 µM

## COc1cc(N)c(Cl)cc1C(=O)N[C@H]1CCN(CCCOc2ccc(F)cc2)C[C@H]1OC [REL-CISAPRIDE]
  inhibition (INH): 97.2%
